Sequences of proteins named here, by UniProt entry; tags and fusion partners are left off. Residues count along the entry.
UniProt P00742, 41-179 limits assumed: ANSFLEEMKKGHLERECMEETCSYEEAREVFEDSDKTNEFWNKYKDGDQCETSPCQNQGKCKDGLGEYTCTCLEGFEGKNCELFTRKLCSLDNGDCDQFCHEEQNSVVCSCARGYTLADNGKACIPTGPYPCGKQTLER
UniProt P00742, 235-488 limits assumed: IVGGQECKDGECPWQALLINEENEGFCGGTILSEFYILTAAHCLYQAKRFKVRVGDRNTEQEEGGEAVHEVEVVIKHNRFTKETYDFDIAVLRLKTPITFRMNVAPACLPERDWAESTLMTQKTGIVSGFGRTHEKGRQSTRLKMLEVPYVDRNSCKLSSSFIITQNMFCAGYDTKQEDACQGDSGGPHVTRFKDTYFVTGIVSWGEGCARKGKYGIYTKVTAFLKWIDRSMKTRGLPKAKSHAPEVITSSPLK

In ChEMBL document CHEMBL1135855, “4-amidinobenzylamine-based inhibitors of urokinase” (Bioorg Med Chem Lett, 2002):

Molecular target: Coagulation factor X (Homo sapiens, UniProt P00742)
Experiment: In vitro inhibition of Coagulation factor Xa.

- Ki: 0.5 µM
SMILES: CC(C)COC(=O)OC[C@@H](NS(=O)(=O)Cc1ccccc1)C(=O)NCC(=O)NCc1ccc(C(=N)N)cc1
